In PubChem BioAssay AID2501 (Southern Research Specialized Biocontainment Screening …, 2010) one finds inhibition data, which are given here for one molecule.

Only a part is listed here, and it is no random draw. Activity calls are given as the source filed them. The limit is not given here; nearly all actives have IC50 up to about 92 µM.

The nature of this assay: counter assay for TAg ATPase ADP read-out – biochemical, ADP-Hunter, fluorescence, counter-screen (AID 2501).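 Also: purified T antigen ATPase; 0% = enzyme with vehicle and 100% = reference inhibitor wells; higher means more inhibition.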 As to conditions: at 100 µM (top of the series). (The purpose of a counterscreen is to sort out artefacts and off-target activity.)
In the case of `Cc1c2non([O-])c-2c(C)[n+](=O)[n+]1[O-]`, the inhibition was inactive: -20.1%.

The term inhibition denotes the drop in the measured response relative to a control, in per cent.
